## Measured affinities in a library of Ab-14 light chain variants

From the AlphaSeq antibody data of Li et al. 2023 (doi:10.1038/s41467-023-39022-2), copy in the FLAb collection.

The target is the same throughout: PDVDLGDISGINAS, from the HR2 region of SARS-CoV-2 spike.

Ab-14 is the parent antibody, in scFv form: VH, then a 15-residue (Gly4Ser)3 linker, then VL. The heavy chain is unchanged in all variants.
VH: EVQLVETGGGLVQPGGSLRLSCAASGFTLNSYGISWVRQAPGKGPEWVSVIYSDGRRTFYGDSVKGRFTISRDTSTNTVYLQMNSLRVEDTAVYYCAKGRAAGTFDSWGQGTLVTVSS
VL: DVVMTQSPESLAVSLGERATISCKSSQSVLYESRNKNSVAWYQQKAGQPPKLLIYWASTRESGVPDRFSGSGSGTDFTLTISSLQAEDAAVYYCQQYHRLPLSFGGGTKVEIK

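The parent was found by panning a naive human phage display library on the peptide. Designed CDR sequences, proposed from the first random library and measured here. Several design methods are mixed in this list. In AlphaSeq, yeast of one mating type display the scFv and yeast of the other type display the target. Pairs that bind mate more often; barcode pairs of the diploids are counted by sequencing. Each replicate has its own calibration line, from reference interactions of the BCL2 family. The assay was run in six technical replicates.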

Each variant is given by its three light chain CDRs, as the data file delimits them; those of the parent are KSSQSVLYESRNKNSVA, WASTRES, QQYHRLPLS. Kd is apparent (estimated from mating counts) and averaged on the log scale over replicates with a signal. Smaller is tighter. A pair that was not seen in any replicate is written "nd"; this usually means weak binding, but a binder can also be missed. The list is sorted by this average, lowest first, undetected variants last. Of ten entries with the parent sequence, four were seen in most replicates (averages 2.2 nM to 240 nM), three in one and three in none, so single entries are noisy.

Kd | detected | CDR-L1 | CDR-L2 | CDR-L3
380 pM | 6/6 | KVSMSVEMQQRNPNSVA | SASTRLS | QQYHRLPLS
400 pM | 6/6 | KLSQSWLYESRNKNSVA | GASTREV | QQYHRLPLS
500 pM | 6/6 | KLMGSVLYESRNKNSVA | GASQREK | QQYHRLPLS
650 pM | 6/6 | KISQSVLYESRNKNSVA | NASQRES | QQYHRLPLS
690 pM | 6/6 | KASQEVLMESRNMNSVA | NASTREE | QQYHRLPLS
700 pM | 6/6 | KLAQSVNYLSRVMNSVA | DNSTRES | QQYFRLPLS
710 pM | 6/6 | KYSQSVLYESTNKNSVA | DASTRES | QQYHRLPLS
740 pM | 6/6 | KLSQSVLYESRNKWNVA | NASTRES | QQYHRLPLS
780 pM | 6/6 | KLAQSVLYESRNKNSVA | EASTRES | QQYHRLPLS
950 pM | 6/6 | KIGLTLNTLMHQKNNVA | DLVTREN | QQYHRLPLS
1.0 nM | 6/6 | KLSQMVLYESRNKNSVA | GASTRES | QQYHRLPLS
1.1 nM | 6/6 | KSSQAELYESRQKNSVA | NASYRED | QQYHRLPLS
1.1 nM | 6/6 | MISDLTMSGSRNKNSVA | DLSTRGS | QQYHRLPLS
1.1 nM | 6/6 | KLSTSVMLESRNVNSVA | SASQREE | QQYHRLPLS
1.3 nM | 6/6 | KLSQSVLYESRNKNSVA | NANTRLS | QQYHRLPLS
1.5 nM | 6/6 | KSSQQVLGESRNMNSVA | NASTREE | QQYHRLPLS
1.5 nM | 6/6 | KFNQMVLTGAYVSNSVA | QMSTRVN | QQYHRLPLS
1.5 nM | 6/6 | KMKQSIEGNPKNWNSIA | DVDSTTE | QQYARLPLF
1.5 nM | 6/6 | KVKNMMNQMGTQHQNIA | DGAIKAD | QQYQRLPLW
1.8 nM | 6/6 | KSSQGVLYESRNKNSVA | TASTRES | QQYHRLPLS
1.9 nM | 6/6 | KIEQSVLYESRNKNSVA | LASTRES | QQYHRLPLS
2.0 nM | 6/6 | KLGMTLNQLMHKKNNVA | DLVERET | QQYHRLPLS
2.1 nM | 6/6 | KLSQSTWYESGMKNSVA | NASKREQ | QQYHRLPLS
2.1 nM | 6/6 | KLRQSTAYLMENKNSVA | ELTTRGS | QQYFRLPLS
2.7 nM | 6/6 | KVSQSHLYESRNKNSVA | EASTRCS | QQYHRLPLS
3.0 nM | 6/6 | KLAQSTKYESRNQNSVA | YASTRES | QQYHRLPLS
3.5 nM | 6/6 | KVDQSVWKESRNKNSVA | AASWREE | QQYHQLPLS
4.8 nM | 6/6 | KLVQFMNRGTHHTSNIA | DAQNRID | QQYARLPLV
5.4 nM | 6/6 | KQQQSEPGLSRNMNSVA | HASQRES | QQYHRLPLS
7.2 nM | 6/6 | MISDLTMYGSRNKNSVA | DLSTRGS | QQYERLPLS
8.2 nM | 6/6 | SFHEVNFEGLAQTANVA | NASYLFE | QQYFRLPLT
11 nM | 6/6 | LWSQSDLLESRNHNSVA | HASTRCS | QQYHRLPLS
12 nM | 6/6 | KSSQSVLYESINANSVA | WASTRES | QQYHRLPLS
12 nM | 6/6 | KSSQSVLTESQNSHSVA | WASTRES | QQYHRLPLS
16 nM | 6/6 | KSSQSVPYESRNKNSVA | MASTRES | QTYHRLPLS
16 nM | 6/6 | QLEREALGGANYDYSIA | AQDVAMP | QQYDRLPLI
17 nM | 6/6 | MVTQMAMTGMMSKRSVA | NASTREE | QQYHRLPLI
21 nM | 6/6 | MISQLYNMGSFAINSVA | QASLRNE | QQYDRLPLM
21 nM | 4/6 | TISELHNQALGMRNNVA | NNQTRED | QQYARLPLS
35 nM | 4/6 | QIYQAMHTLMQVKNNIA | DVTNRNE | QQYHRLPLS
40 nM | 6/6 | IIDQIMYHGNKHANSIA | QASERLN | QQYHHLPLI
45 nM | 4/6 | TISSVMQTQSHSKNNVA | EVSTRLE | QQYFRLPLE
45 nM | 6/6 | KSSNSVLYESENKNSVA | EASQRES | QQYHRLPLS
46 nM | 6/6 | QFHSGMIGDQRNVHSIA | NAQAAVP | QYYFRLPLS
50 nM | 5/6 | KVSQSVLYEQGTKNSVA | NASSRES | QQYHRLPLS
56 nM | 5/6 | HWSQSVPMGERNKNSVA | MASKRES | QQYHRLPLS
63 nM | 6/6 | KSSQLVLYESRNKNSVA | WASVREA | QQYHRLPLS
75 nM | 2/6 | IVSQLMLWGMHVKNSIA | EAQTRVN | QQYDRLPLI
130 nM | 6/6 | MISDLTMYGSRNVNSVA | DLSTRGS | QQYDRLPLS
130 nM | 5/6 | KLSQSHLYESRNKNSVA | HASLRLS | QCYHRLPLS
370 nM | 2/6 | KSSTSVLYESRNKNSVA | WVSTRER | QQYCRLPLS
670 nM | 2/6 | KSSQSVLYESRNKNSVA | WASTRES | QQMRRWPLS
1.9 µM | 1/6 | KCSQSHLYESRNKNSVA | RASTRES | QQYHRPPLS
nd | 0/6 | KSSQSVLMESRNKNSVA | NASIRES | QQIHRTPLS
nd | 0/6 | KSSQSVIYESRNKNNVA | WASLRES | QQYHRLPLS
nd | 0/6 | KLLQSVNYGSRAMNSVA | QMETRED | QQYHRLPLS

A selection of 7 entries from above:

CDR-L1 | CDR-L2 | CDR-L3 | Kd | detected
KLMGSVLYESRNKNSVA | GASQREK | QQYHRLPLS | 500 pM | 6/6
KSSQGVLYESRNKNSVA | TASTRES | QQYHRLPLS | 1.8 nM | 6/6
KCSQSHLYESRNKNSVA | RASTRES | QQYHRPPLS | 1.9 µM | 1/6
KASQEVLMESRNMNSVA | NASTREE | QQYHRLPLS | 690 pM | 6/6
QFHSGMIGDQRNVHSIA | NAQAAVP | QYYFRLPLS | 46 nM | 6/6
TISELHNQALGMRNNVA | NNQTRED | QQYARLPLS | 21 nM | 4/6
KSSTSVLYESRNKNSVA | WVSTRER | QQYCRLPLS | 370 nM | 2/6

Nonspecific signal, from three strains lacking the peptide, appeared in 4% of pairings of all light chain designs, centred on 430 nM (5% of these signals below 38 nM); values are not corrected for it. The authors averaged sequences with at least three values out of six and counted those with two or fewer as poor binders. Values of this round are not directly comparable with the first-round values of the same sequences.